pIC50: −log10 of the molar value.
Test system: not listed separately
Assay: Inhibition of MAdCAM-1/alpha-4 beta7-mediated cell adhesion to T-cell lymphoma, HUT78 cells at 500 uM
Format: functional
Details: not given

**Q.** With `CC(=O)N[C@@H](CC(C)C)C(=O)N[C@@H](CC(=O)O)C(=O)N[C@H](C(=O)N[C@H](C(=O)N[C@@H](CC(C)C)C(N)=O)[C@@H](C)O)[C@@H](C)O` as the compound, how does the inhibition at 500 µM read?
**A.** 100%

**Q.** Which inhibition at 500 µM does the source give for `CC(=O)N[C@@H](CC(C)C)C(=O)N[C@@H](CC(=O)O)C(=O)N[C@H](C(=O)N[C@@H](CO)C(=O)N[C@@H](Cc1ccccc1)C(N)=O)[C@@H](C)O` here?
**A.** 86%

**Q.** Which inhibition at 500 µM does the source give for `CC(=O)N[C@@H](CC(C)C)C(=O)N[C@@H](CC(=O)O)C(=O)N[C@@H](CO)C(=O)N[C@@H](CO)C(=O)N[C@@H](CC(C)C)C(N)=O` here?
**A.** 38%

**Q.** Which inhibition at 500 µM does the source give for `CC(=O)N[C@@H](CC(C)C)C(=O)N[C@@H](CC(=O)O)C(=O)N[C@H](C(=O)N[C@@H](CO)C(=O)N[C@@H](CC(C)C)C(N)=O)C(C)C` here?
**A.** 85%

**Q.** For `CC(=O)N[C@@H](CC(C)C)C(=O)N[C@@H](CC(=O)O)C(=O)N[C@H](C(=O)N[C@@H](CO)C(=O)N[C@@H](CC(C)C)C(N)=O)[C@@H](C)O`, which inhibition at 500 µM is on record?
**A.** 71%

Test system: HuT78
Assay: Compound was tested for inhibition of MAdCAM-1/alpha-4 beta-7 mediated cell adhesion to T-cell lymphoma, HUT78 cells
Format: functional, cell-based
Details: Homo sapiens

**Q.** With `CC(=O)N[C@@H](CC(C)C)C(=O)N[C@@H](CC(=O)O)C(=O)N[C@H](C(=O)N[C@@H](CO)C(=O)N[C@@H](CC(C)C)C(N)=O)[C@@H](C)O` as the compound, how does the pIC50 read?
**A.** 3.60
